Laboratory results published in PubChem BioAssay AID2216 (Broad Institute, 2009).
Only a part is listed here, and it is no random draw. Records with an inconclusive call do not appear. Activity calls are given as the source filed them.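 The calls were made as follows: active = more than half of the replicate wells show a fall in the fluorescence ratio signal beyond about 16% (limit read from the data, passing the limit was not always enough); inconclusive = exactly half of the replicate wells pass the set limit; inactive = fewer than half of replicates pass the limit.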

System: Ran GTPase (GTP-bound) - importin-beta complex
Assay: disruptors of Ran-importin-beta complex formation – biochemical, FRET, CFP-Ran, YFP-importin-beta, homogeneous, primary screen (AID 2216);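 also: 0% = DMSO wells and 100% = Ran loaded with GDP instead of GTP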
Conditions: cell-free CFP-Ran/YFP-importin-beta FRET ratio; active compounds read high; concentration not given here

| Compound | inhibition |
| --- | --- |
| CN(C)C(=O)OCCc1n(C)cc[n+]1C | inactive: 2.12% |
| CC(C)=N/N=C(\N)N[N+](=O)[O-] | inactive: 1.02% |
| CN(C)C(=O)c1c([N+](=O)[O-])cc([N+](=O)[O-])cc1[N+](=O)[O-] | inactive: -5.97% |
| CC1CCN(C(=O)Oc2c(Cl)cc(Cl)c3cccnc23)CC1 | inactive: 9.03% |
| C[N+]1=C2C=CC=CC=C2SC12C([N+](=O)[O-])=CC([N+](=O)[O-])=C[C-]2[N+](=O)[O-] (stereo not drawn) | inactive: -3.73% |
| COc1ccccc1OP(C)(=O)Nc1ccccc1Br (stereo not drawn) | inactive: 6% |
| Nc1ccc([As](=O)(O)c2ccc(N)cc2)cc1 | inactive: 4.85% |
| CC(C)(C)c1ccc(OP(C)(=O)O)cc1 | inactive: -1.58% |
| CP(=O)(Nc1ccc(Cl)cc1)Oc1ccc(F)cc1 (stereo not drawn) | inactive: 5.22% |
| CCN(/C(=N/P(=O)(N1CCOCC1)N1CCOCC1)N1CCOCC1)c1ccc(OC)cc1 | inactive: -0.861% |
| O=C(OCCCN1CCCC1)C(O)(c1ccccc1)C1CCCCC1 (stereo not drawn) | inactive: 1.21% |
| CC(=O)N1C2C3N(C(C)=O)C1C1N(C(C)=O)C(C(N1C(C)=O)N3C(C)=O)N2C(C)=O | inactive: 0.774% |
| O=[N+]([O-])c1cccc2n[nH]nc12 | inactive: -1.18% |
| COc1ccccc1OP(C)(=O)Nc1c(C)n(C)n(-c2ccccc2)c1=O (stereo not drawn) | inactive: -4.88% |
| CCc1ccc(OP(C)(=O)Nc2cccnc2)cc1 (stereo not drawn) | inactive: -1.47% |
| O=[N+]([O-])c1cc([N+](=O)[O-])c(CCNc2ccccc2)c([N+](=O)[O-])c1 | inactive: 4.31% |
| CP(=O)(Oc1ccccc1)N1CCOC1=O (stereo not drawn) | inactive: 0.436% |
| Cc1ccc(NP(=O)(Oc2ccccc2)Oc2ccccc2)nc1 | inactive: -3.67% |
| COc1ccc(OP(C)(=O)Nc2ccc(Br)cc2)cc1 (stereo not drawn) | inactive: -1.51% |
| COc1ccc(C2=NCC(CBr)S2)cc1 (stereo not drawn) | inactive: -0.463% |
| CCN(CC)CC(O)COC(=O)C(O)(c1ccccc1)C1CCCCC1 (stereo not drawn) | inactive: 4.06% |

| Compound | inhibition |
| --- | --- |
| O=[N+]([O-])c1cccc(NC2=NCC(CBr)S2)c1 (stereo not drawn) | inactive: -0.524% |
| O=C(O)CNc1ccc([As](=O)(O)O)cc1 | inactive: -0.0207% |
| CC(C)(C)C(=O)NC(Sc1ccncn1)C(Cl)(Cl)Cl (stereo not drawn) | inactive: -1.79% |
| O=[N+]([O-])c1ncn(CCn2ncnc2[N+](=O)[O-])n1 | inactive: -1.72% |
| O=C(Nc1cc([As](=O)(O)O)ccc1O)c1ccccc1 | inactive: 1.6% |
| CCOC(=O)c1ccc(NP(C)(=O)Oc2ccc(Cl)cc2)cc1 (stereo not drawn) | inactive: -1.87% |
| Nc1ccc2c(ccc3cccnc32)n1.O=[N+]([O-])c1cc([N+](=O)[O-])c(O)c([N+](=O)[O-])c1 | inactive: 0.728% |
| CCN(N=Nc1nonc1N)c1nonc1N | inactive: 1.57% |
| CP(=O)(Nc1ccc(Cl)cc1Cl)Oc1ccccc1 (stereo not drawn) | inactive: 4.04% |
| CP(=O)(OCCOc1ccccc1)OCCOc1ccccc1 | inactive: 1.94% |
| Nc1cccc2ccc([As](=O)(O)O)cc12 | inactive: -0.419% |
| Cc1nc2ccc3ccccc3c2o1.O=[N+]([O-])c1cc([N+](=O)[O-])c(O)c([N+](=O)[O-])c1 | inactive: 1.22% |
| O=[N+]([O-])c1cc([N+](=O)[O-])c(CCN2CCOCC2)c([N+](=O)[O-])c1 | inactive: -2.33% |
| COc1ccccc1OP(C)(=O)Nc1ccc(C)c(C)c1 (stereo not drawn) | inactive: 2.36% |
| CN(C(=O)Cc1ccc(Cl)c(Cl)c1)[C@H]1CCCC[C@@H]1N1CCCC1 | inactive: -2.7% |
| Cc1ccc(NP(=O)(Oc2ccccc2F)Oc2ccccc2F)nc1 | inactive: 4.1% |
| Cc1cc(SC(NC(=O)c2ccc(F)cc2)C(Cl)(Cl)Cl)ncn1 (stereo not drawn) | inactive: 2.28% |
| CCOP(=O)(Nc1ccccc1)OCC | inactive: 2.53% |
| COc1ccc(OP(C)(=O)Nc2ccccc2Br)cc1 (stereo not drawn) | inactive: 1.84% |
| CC(=O)Nc1ccc([As](=O)(O)O)cc1 | inactive: -4.17% |
| O=C(O)c1ccccc1[As](=O)(O)O | inactive: -3.84% |

| Compound | inhibition |
| --- | --- |
| O=P(Nc1nc2ccc(Cl)cc2s1)(c1ccccc1)c1ccccc1 | inactive: -0.739% |
| Cc1cc(C)cc(OP(C)(=O)Nc2cccc(C(F)(F)F)c2)c1 (stereo not drawn) | inactive: 2.31% |
| COc1ccccc1OP(C)(=O)Nc1ccc(C)cc1C (stereo not drawn) | inactive: -4.33% |
| CP(=O)(Nc1ccccn1)Oc1ccccc1 (stereo not drawn) | inactive: -5.56% |
| CCc1ccc(OP(C)(=O)O)cc1 | inactive: 0.51% |
| Nc1cc(N)c2nonc2c1[N+](=O)[O-] | inactive: 4.88% |
| Cc1c(NP(C)(=O)Oc2ccc(C(C)C)cc2)c(=O)n(-c2ccccc2)n1C (stereo not drawn) | inactive: 12.9% |
| O=[N+]([O-])c1cc([N+](=O)[O-])c(Nc2ccccn2)c([N+](=O)[O-])c1 | inactive: 2.47% |
| CC(C)CC(=O)NC(Sc1ccc(Cl)cc1)C(Cl)(Cl)Cl (stereo not drawn) | inactive: 1.53% |
| O=C(NC(Sc1ccncn1)C(Cl)(Cl)Cl)c1ccccc1 (stereo not drawn) | inactive: 0.245% |
| Cc1c2non([O-])c-2c(C)[n+](=O)[n+]1[O-] | inactive: -0.617% |
| Oc1ccccc1CNc1ccccn1 | inactive: 1.78% |
| Cc1ccc(OP(=O)(Nc2nccs2)Oc2ccc(C)cc2)cc1 | inactive: 1.38% |
| COc1ccc(OP(C)(=O)Nc2ccccn2)cc1 (stereo not drawn) | inactive: 0.757% |
| CN1CCCC(OC(=O)C(c2ccccc2)c2ccccc2)C1 (stereo not drawn) | inactive: 2.39% |
| Clc1ccc(Cl)c(NC2=NCC(CBr)S2)c1 (stereo not drawn) | inactive: 3.59% |
| NC(=O)c1cc([N+](=O)[O-])cc([N+](=O)[O-])c1N | inactive: -1.15% |
| Cc1ccc(N/C(=N/P(=O)(N2CCOCC2)N2CCOCC2)N2CCOCC2)cc1 | inactive: 0.985% |
| COc1ccccc1OP(C)(=O)Nc1ccc(Br)cc1 (stereo not drawn) | inactive: -1.72% |
| CC(=O)Nc1ccc(Oc2c([N+](=O)[O-])cc([N+](=O)[O-])cc2[N+](=O)[O-])cc1 | inactive: -0.00695% |
| CC(=O)Nc1ccc([As](=O)(O)O)c(O)c1 | inactive: -1.49% |
